# Yeast mating assay 1: variants of the scFv Ab-14

From the AlphaSeq antibody data of Engelhart et al. 2022 (doi:10.1038/s41597-022-01779-4), copy in the FLAb collection.

Binding partner: SARS-CoV-2 spike HR2 peptide, sequence PDVDLGDISGINAS.

Parent scFv Ab-14: VH joined to VL by a 15-residue (Gly4Ser)3 linker. Changes lie in the heavy chain CDRs alone.
VH: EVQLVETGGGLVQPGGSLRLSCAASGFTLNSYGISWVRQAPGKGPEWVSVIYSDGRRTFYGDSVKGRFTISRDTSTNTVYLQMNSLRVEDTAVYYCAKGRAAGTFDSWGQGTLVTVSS
VL: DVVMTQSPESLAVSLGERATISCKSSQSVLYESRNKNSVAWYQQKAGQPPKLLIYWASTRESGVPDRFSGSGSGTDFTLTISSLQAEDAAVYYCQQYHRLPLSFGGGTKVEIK

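Phage display of a naive human antibody library on the peptide gave the parent. Variants in AAYL49 differ from the parent at up to three CDR positions; double and triple changes were sampled at random. In AlphaSeq, yeast of one mating type display the scFv and yeast of the other type display the target. Pairs that bind mate more often; barcode pairs of the diploids are counted by sequencing. Read counts were normalised to the haploid input and turned into Kd by a linear fit to BCL2-family pairs of known affinity, for each replicate. Each pool was mated in three replicate cultures.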

Variants are written as CDR1, CDR2 and CDR3 of the heavy chain (limits as in the source). Parent: GFTLNSYGIS, VIYSDGRRTFYGDSVK, GRAAGTFDS.
The read-out is the apparent dissociation constant on a log10 scale (nM): the lower, the stronger.
"ND" means that the variant was in the library but no mating with the target was seen in that replicate; the authors take this as a sign of poor binding, and no number exists.
Parent in this assay: reference entry 0.65, copy in this library 4.11 (one replicate of three).

CDR-H1	CDR-H2	CDR-H3	replicates, log10 nM	signal with controls
QFTLNSYLIS	VIYSDGRRTFYGDSVK	GRAAGYFDS	ND / 2.93 / 5.17	1/9 (2.98)
GITLNSYGIS	VIYADGRRTFYGDSVK	GRAAGTFDM	-0.12 / 0.22 / 0.06	0/9
GFTLNSYGIS	VINSDGRRTFYGDSHK	GRAAGWFDS	ND / ND / ND	0/9
GFTLNSGGIS	VIYSDGRRTFYGDSVK	GRCAGTFDS	ND / ND / ND	3/9 (3.51)
GFTLNSHGIS	VIYSDGVRTFYGDGVK	GRAAGTFDS	4.99 / 5.50 / 6.16	6/9 (4.41)
GFTLNSYGIS	AIYSDRTRTFYGDSVK	GRAAGTFDS	ND / 4.94 / ND	0/9
GFTLYSYGTS	VIYSFGRRTFYGDSVK	GRAAGTFDS	ND / ND / ND	0/9
GFTLNSYGIS	VFYSPGRRTFYGDSVG	GRAAGTFDS	ND / ND / ND	0/9
GFTLNSYGIS	VIGSDGRRTFYGDSVA	GSAAGTFDS	ND / ND / 4.97	2/9 (3.47)
GFTLNSYGIS	VIYSDGRRTFYGDSVK	GRAIITFDS	ND / ND / ND	1/9 (5.08)
GFTLNSYGIS	VIYSDGRRTFEGDSVK	AVAAGTFDS	ND / ND / ND	0/9
GFTLNSYGIS	VIPSDGRRNFYADSVK	GRAAGTFDS	ND / ND / 4.68	2/9 (3.93)
GFTLNSYGCS	VIYSDGRRTFYGDGVK	GRAAGTFDS	ND / ND / ND	0/9
GFTLNGYGIS	VIYSDRPRTFYGDSVK	GRAAGTFDS	ND / ND / ND	0/9
GFTLNSYGIS	VIYSDGRRTFYTDSVK	QRAAGTFDS	1.62 / 1.92 / 1.87	1/9 (2.66)
GFTLNSYSIS	VIYSDGRRTFYVDSVK	GTAAGTFDS	ND / ND / ND	2/9 (2.84)
NFTLNSYLIS	VIYSDGRRTFYGDSVK	GRAAGTFQS	6.11 / 4.74 / 4.54	6/9 (3.93)
GFTLNTYGIS	VTYSDGRRTFYGDSVK	GRAAGTFDC	ND / ND / ND	1/9 (2.04)
GFTLNWYGIS	VIYSDGTRTLYGDSVK	GRAAGTFDS	3.76 / ND / ND	1/9 (3.39)
GFTLMSYGIS	VIYQDGRRTFYGDSVK	GNAAGTFDS	ND / 2.87 / 4.10	2/9 (3.42)
GFTLNSYGIS	VIYSDGRRTFYRDSVK	VRYAGTFDS	1.30 / 1.56 / 1.32	1/9 (5.99)
GFTLNWYGIS	VIYSDGRRTFYGDSVK	GRSAGTFDS	3.77 / 2.42 / 4.23	4/9 (3.77)
GFTLSSYGIS	VIYSDGRRTFYGDSVK	GRAQGTFMS	0.88 / 1.16 / 0.98	1/9 (3.69)
GFTLNSYGIS	VIYSDGRRTFYGDVVK	GRAAYTFDS	ND / ND / 3.59	1/9 (2.35)
GFTLNSYGWS	VIYSDWRRTFYGNSVK	GRAAGTFDS	ND / ND / ND	1/9 (3.78)
GFWLNSYGRS	VIYSDGRRTLYGDSVK	GRAAGTFDS	3.77 / ND / ND	1/9 (4.78)
GFTLNSYGIK	VIYSDGRRDFYGDSIK	GRAAGTFDS	3.18 / ND / 4.81	3/9 (3.51)
GFTLNSYGGS	VIYSDGRVTFYGNSVK	GRAAGTFDS	ND / ND / ND	0/9
GFTLNSYGIS	VIYSDGQRTVYGDSNK	GRAAGTFDS	3.67 / ND / ND	0/9
GFTLNSYGIS	VIYSDGRDTFYYDSVK	GRAAGTFDS	ND / ND / ND	0/9

The first 4 entries again:

CDR-H1,CDR-H2,CDR-H3,"replicates, log10 nM",signal with controls
QFTLNSYLIS,VIYSDGRRTFYGDSVK,GRAAGYFDS,ND / 2.93 / 5.17,1/9 (2.98)
GITLNSYGIS,VIYADGRRTFYGDSVK,GRAAGTFDM,-0.12 / 0.22 / 0.06,0/9
GFTLNSYGIS,VINSDGRRTFYGDSHK,GRAAGWFDS,ND / ND / ND,0/9
GFTLNSGGIS,VIYSDGRRTFYGDSVK,GRCAGTFDS,ND / ND / ND,3/9 (3.51)

Background: pairings of library AAYL49 with three empty control strains gave a value in 15% of cases (median 4.06, 5th percentile 2.83). Values in that range, when seen in few replicates, are hard to tell from nonspecific mating. Also given: how often the same scFv was detected with the empty control strains, with their mean in brackets.